Consider 5 compounds from article PMC8067754, “Active Transport of Hepatotoxic Pyrrolizidine Alkaloids in HepaRG Cells” (International Journal of Molecular Sciences, 2021).

“And” between values parts separate entries of the source, which are not always exact repeats. Equal entries are not always repeated.

Data set [1] concerns HepaRG cells. The experiment in a line: PA and PANO content in cell culture medium of HepaRG cells upon pharmacological transporter inhibition (LC-MS/MS). The procedure: (§1) In the case of TEA, cells were pre-incubated 24 h prior to PA treatment. The inhibitors were applied anew at PA incubation.
(§2) In order to measure time-dependent depletion of PA and PANO content in cell culture medium, cells were seeded at a density of 0.2 × 10^6 cells per well in a 6-well plate and cultivated as described in Section 4.2. After four weeks of cultivation, cells were adapted to serum-free medium and medium substituted with insulin, transferrin, selenium (ITS) serum extender (Capricorn Scientific, Ebsdorfergrund, Germany) 48 h prior to PA incubation for optimal LC-MS/MS measurements. […] Samples were taken after 2 h, 4 h, 8 h and 24 h.
(§3) Briefly, chromatographic separation of PA/PANO analytes was achieved on a 50 × 2.1 mm Kinetex ™ 2.6 μm CoreShell EVO C18 100 Å column protected by a SecurityGuard ™ ULTRA EVO C 18 2.1 mm guard column (both Phenomenex, Aschaffenburg, Germany) at a flow rate of 0.4 mL/min on a Shimadzu high performance liquid chromatography (HPLC) apparatus (LC-20AB, SIL-20AC HT, CTO-20AC, CBM-20A, Duisburg, Germany) coupled to an API4000 triple quadrupole MS (Sciex, Darmstadt, Germany). The following MS parameters were used for measurements in positive electrospray ionisation (ESI+) mode: ionisation voltage 2500 V, nebuliser gas 50 psi, heating gas 50 psi, curtain gas 30 psi, temperature 600 °C, collision gas level 7. The substance specific parameters are summarized in Kaltner et al. 2019 [79].

In data set [2] the test system is HepaRG cells. As to the kind of experiment: Cell viability (MTT assay) of HepaRG cells with and without transporter inhibitors. The settings on record: for viability [%], single replicates: repl. 1-6; for viability, MW [%]: mean of 6 replicates, no inhibitor; for Cell viability (MTT), percent of solvent control, Mean [%]: 24 h. As to the method:
as §1
To analyze the cytotoxic effects of PAs on HepaRG cells with non-inhibited and inhibited hepatic transporters, the cells were seeded at a density of 9000 cells per well in the inner 60 wells of a 96-well plate and cultivated as described in Section 4.2. After four weeks of cultivation, FBS concentration in the cell culture medium was reduced to 2% for 48 h prior incubation. Thereby, inhibitory effects of peptide growth factors from the FBS on xenobiotic-metabolizing enzymes were minimized. […] The cells were pre-incubated with pharmacological inhibitors as described in Section 4.3. […] Cell viability was analyzed via the MTT test. 10 µl MTT reagent (5 mg/mL MTT dissolved in phosphate-buffered saline, PBS) was added per well and incubated for 1 h at 37 °C. The supernatant was discarded, and the violet formazan crystals dissolved in 130 µL desorption solution (0.7% sodium dodecyl sulfate in propan-2-ol). After shaking for 20 min (under protection from light), absorbance was measured on a TecanM200Pro spectrometer (Tecan Group Ltd., Männedorf, Switzerland) at a wavelength of 570 nm, along with a reference wavelength of 630 nm.
(Formazan colour is commonly taken as a measure of viable cells.)

Data set [3] has as its system HepaRG cells. As to the kind of experiment: Time-dependent PA depletion and PANO formation in cell culture medium of HepaRG cells at 37 °C and 4 °C (LC-MS/MS). The settings on record: for PA content in cell culture medium, Mean [%]: HepaRG, 700 nM PA, percent of initial PA concentration. As to the method: as §2, §3

For the compound `C/C=C1/C[C@@H](C)[C@@](C)(O)C(=O)OCC2=CCN3CC[C@@H](OC1=O)[C@@H]23` [Senecionine, senecionine], the “PA in medium, single replicates (repl.)” value in the data set on HepaRG cells [1] (plus CsA, 4h) is listed as 76.2448%; in the data set with HepaRG cells [1] (plus CsA, 8h) it was 87.9321%; in the data set on HepaRG cells [1] (plus Qu, 4h), 97.1469%; with HepaRG cells [1] (plus TEA, 8h), 68.4746%. In addition, the “PA in medium, Mean [%]” value in the data set on HepaRG cells [1] (plus Qu, 4h) was found to be 94.4839%; in the data set with HepaRG cells [1] (plus Qu, 8h) it was 83.2319%; in the data set with HepaRG cells [1] (plus Qu, 24h) it was 67.4875%. Further, the “viability [%], single replicates” value with HepaRG cells [2] (50 µM) is given as 64.2099%.
As to `C/C=C(/C)C(=O)O[C@H]1CCN2CC=C(COC(=O)[C@@](O)([C@@H](C)O)C(C)(C)O)[C@H]12` [Heliosupine, heliosupine], the “PA content in cell culture medium, Mean [%]” value (“PA content … [%]” for short) in the data set on HepaRG cells [3] (4 °C (cold), 0h) is recorded as 92.2048%. Besides, the “PA in medium, Mean [%]” value with HepaRG cells [3] (cold, 2h) came to 101.095%. Moreover, the “PA in medium, single replicates (repl.)” value was 111.475% in the data set on HepaRG cells [3] (cold, 2h); 97.5566% and 104.353% in the data set with HepaRG cells [3] (cold, 8h); 85.8144% in the data set on HepaRG cells [3] (cold, 24h).
Regarding `C/C=C(/C)C(=O)O[C@@H]1CCN2CC=C(COC(=O)[C@@](O)([C@H](C)O)C(C)(C)O)[C@H]12` [Echimidine, echimidine], the “PA content … [%]” value in the data set on HepaRG cells [3] (4 °C (cold), 0h) is 105.779%; with HepaRG cells [3] (4 °C (cold), 2h), 103.801%; in the data set on HepaRG cells [3] (4 °C (cold), 8h) it was 101.511%; in the data set with HepaRG cells [3] (37 °C (warm), 0h) it was 103.451%. Moreover, the “PA in medium, single replicates (repl.)” value in the data set on HepaRG cells [3] (cold, 2h) is 92.2363% and 112.232%; in the data set on HepaRG cells [3] (cold, 4h), 109.072%; in the data set on HepaRG cells [3] (cold, 8h), 91.1786%; in the data set with HepaRG cells [3] (cold, 24h), 112.994%; in the data set on HepaRG cells [3] (warm, 2h), 70.4%.
`C/C=C1/C[C@@H](C)[C@@](C)(O)C(=O)OC/C2=C/CN(C)CC[C@@H](OC1=O)C2=O` [Senkirkine, senkirkine]: the “PA content … [%]” value in the data set on HepaRG cells [3] (4 °C (cold), 0h) was 116.557%; with HepaRG cells [3] (4 °C (cold), 2h) it was 117.334%; in the data set with HepaRG cells [3] (4 °C (cold), 4h), 113.535%; in the data set on HepaRG cells [3] (37 °C (warm), 0h), 111.857%; in the data set with HepaRG cells [3] (37 °C (warm), 2h), 108.399%; with HepaRG cells [3] (37 °C (warm), 4h), 103.326%. In the data set on HepaRG cells [3] (37 °C (warm), 8h), the “PA content … [%]” value is recorded as 88.0948%. Also, the “PA in medium, Mean [%]” value with HepaRG cells [3] (cold, 2h) came to 100.631%; in the data set with HepaRG cells [3] (cold, 4h), 97.2946%. The “PA in medium, single replicates (repl.)” value in the data set with HepaRG cells [3] (cold, 2h) is 97.2674% and 107.717%; with HepaRG cells [3] (cold, 4h), 105.144%; in the data set on HepaRG cells [3] (cold, 8h) it was 93.1897% and 109.296%; with HepaRG cells [3] (cold, 24h) it was 81.5267% and 97.5949%; in the data set with HepaRG cells [3] (warm, 2h) it was 107.805%; with HepaRG cells [3] (warm, 4h), 102.584%.
Take retrorsine: the “PA content … [%]” value in the data set on HepaRG cells [3] (4 °C (cold), 0h) was 107.862%; in the data set with HepaRG cells [3] (4 °C (cold), 2h), 106.185%; with HepaRG cells [3] (4 °C (cold), 4h) it was 105.63%; in the data set on HepaRG cells [3] (4 °C (cold), 8h) it was 105.571%; in the data set with HepaRG cells [3] (4 °C (cold), 24h), 102.674%; in the data set with HepaRG cells [3] (37 °C (warm), 0h), 107.752%. Further, the “PA content … [%]” value was 97.8391% in the data set with HepaRG cells [3] (37 °C (warm), 2h); 81.6972% with HepaRG cells [3] (37 °C (warm), 4h); 63.1656% with HepaRG cells [3] (37 °C (warm), 8h); 14.6683% with HepaRG cells [3] (37 °C (warm), 24h). The “PA in medium, Mean [%]” value worked out at 100% with HepaRG cells [3] (cold, 0h); 98.0469% with HepaRG cells [3] (cold, 2h); 97.5769% in the data set on HepaRG cells [3] (cold, 4h); 97.2641% with HepaRG cells [3] (cold, 8h); 94.9785% with HepaRG cells [3] (cold, 24h); 100% in the data set with HepaRG cells [3] (warm, 0h). Besides, the “PA in medium, Mean [%]” value is on record as 89.9282% in the data set with HepaRG cells [3] (warm, 2h); 75.0081% in the data set on HepaRG cells [3] (warm, 4h); 58.1301% with HepaRG cells [3] (warm, 8h); 13.4736% with HepaRG cells [3] (warm, 24h). Besides, the “PA in medium, single replicates (repl.)” value with HepaRG cells [3] (cold, 0h) is 100%; in the data set with HepaRG cells [3] (cold, 2h) it was 98.2886% and 97.0686% and 88.9541% and 107.876%; with HepaRG cells [3] (cold, 4h), 98.6132% and 96.5055% and 87.5599% and 107.629%; in the data set with HepaRG cells [3] (cold, 8h), 93.1512% and 99.1094% and 90.8717% and 105.924%; with HepaRG cells [3] (cold, 24h) it was 97.9583% and 91.997% and 85.7801% and 104.179%; in the data set with HepaRG cells [3] (warm, 0h) it was 100%. Further, the “PA in medium, single replicates (repl.)” value is 83.3711% and 89.5597% and 88.3434% and 98.4386% in the data set on HepaRG cells [3] (warm, 2h); 72.1224% and 76.5005% and 66.1875% and 85.2218% in the data set on HepaRG cells [3] (warm, 4h); 56.4322% and 60.1951% and 51.5042% and 64.3886% with HepaRG cells [3] (warm, 8h); 14.2525% and 15.0173% and 8.466% and 16.1583% in the data set with HepaRG cells [3] (warm, 24h). For the same compound, the “viability, MW [%]” value with HepaRG cells [2] (1 µM) came to 93.8702%; with HepaRG cells [2] (10 µM) it was 82.9275%; in the data set on HepaRG cells [2] (50 µM) it was 69.717%; in the data set with HepaRG cells [2] (100 µM), 62.1756%; in the data set with HepaRG cells [2] (250 µM), 54.7854%. The “viability [%], single replicates” value is 82.0136% and 100.915% and 94.7011% and 95.3961% and 96.3108% and 93.8843% in the data set on HepaRG cells [2] (1 µM); 71.3311% and 91.125% and 83.07% and 86.7773% and 87.4715% and 77.7902% in the data set with HepaRG cells [2] (10 µM); 52.6347% and 76.7434% and 75.5692% and 73.69% and 78.2744% and 61.3901% in the data set with HepaRG cells [2] (50 µM); 45.221% and 72.9792% and 68.1256% and 69.8136% and 64.1128% and 52.8012% with HepaRG cells [2] (100 µM); 40.1% and 64.221% and 59.0928% and 63.059% and 60.7782% and 41.4616% in the data set with HepaRG cells [2] (250 µM). Besides, in the data set with HepaRG cells [2] (HepaRG, 2.5 µM, Figure S2), the “cytotoxicity of the applied concentration” value is “not cytotoxic”. The “Cell viability (MTT), percent of solvent control, Mean [%]” value with HepaRG cells [2] (HepaRG, 250 µM PA + CsA (10 µM, 1 h pre-incubation)) was found to be 82%; in the data set on HepaRG cells [2] (HepaRG, 250 µM PA + CsA (10 µM, 1 h pre-incubation), listed as Re) it was 82.0505%; with HepaRG cells [2] (HepaRG, 250 µM PA + Ko143 (5 µM, 1 h pre-incubation)), 57.6641%; in the data set on HepaRG cells [2] (HepaRG, 250 µM PA + MK571 (50 µM, 1 h pre-incubation)), 72.349%; with HepaRG cells [2] (HepaRG, 250 µM PA + Qu (100 µM, 1 h pre-incubation)) it was 100%; with HepaRG cells [2] (HepaRG, 250 µM PA + Qu (100 µM, 1 h pre-incubation), listed as Re), 100.85%. The “Cell viability (MTT), percent of solvent control, Mean [%]” value with HepaRG cells [2] (HepaRG, 250 µM PA + TEA (3 mM, 24 h pre-incubation)) is recorded as 82%; in the data set with HepaRG cells [2] (HepaRG, 250 µM PA + TEA (3 mM, 24 h pre-incubation), listed as Re) it was 82.5037%; in the data set with HepaRG cells [2] (HepaRG, 250 µM PA only), 55%; in the data set on HepaRG cells [2] (HepaRG, 250 µM PA only, listed as Re), 55.309%.
